Key:
[1] = system: phosphorylation of ALK, EGFR, Akt and ERK in DFCI032 cells; test: Western blotting of ALK/EGFR signaling in DFCI032 cells; format: cell-based; settings: result in words
panel of 468 kinases = test: KINOMEscan kinome selectivity profiling; format: binding

Cc1cc(Nc2ncc(Cl)c(Nc3ccccc3S(=O)(=O)C(C)C)n2)c(OC(C)C)cc1C1CCNCC1 [Ceritinib]
effects on phosphorylation of ALK, EGFR, Akt and ERK [1]: suppressed phosphorylation of their primary target respectively but were not able to sufficiently reduce phosphorylation of Akt and ERK
binding to ALK and EGFR in KINOMEscan (panel of 468 kinases; 1 μM, result in words): lost affinity for EGFR proteins
S-score(1) (panel of 468 kinases; KINOMEscan at 1 μM, 7c 468 kinases, TAE684 353 kinases): 0.02
